Experimental data published in US9539321B2, “HMGB1-derived peptides enhance immune response to antigens” (The Regents of the University of California, priority 2010, dated 2017).

Key:
Immature human DCs = test: Peptide binding/uptake by flow cytometry; conditions: 30 minutes pre-treatment; PAO 2 μM, CP 100 μM, NY 20 μM, AM 2 mM
J774 macrophages = test: Hp91-induced IL-6 secretion from macrophages after inhibitor pre-treatment; type: cell-based, mouse; conditions: SB 20 μM, TPCK 20 μM, DYN 80 μM, PAO 2 μM, CP 100 μM, 24 h

In the case of `O=[As]c1ccccc1` (centres unmarked), the “effect of inhibitor pre-treatment on uptake of biotinylated Hp91” value (Immature human DCs) is reported as “significantly reduced” and the “effect of inhibitor pre-treatment on Hp91-induced IL-6 secretion” value (J774 macrophages) is reported as “significant reduction”.
